Values quoted from earlier work in patent US20160282364A1, “ASSAY FOR INSULIN-DEGRADING ENZYME (IDE) INHIBITORS” (PRESIDENT AND FELLOWS OF HARVARD COLLEGE, priority 2013, published 2016).

Test system: IDE
Conditions: degradation kinetics compared to insulin; cited from earlier work

calcitonin-gene related peptide (ACDTATCVTHRLAGLLSRSGGVVKNNFVPTNVGSKAF; Calcitonin gene-related peptide 1; UniProt P06881 83-119, looked up) [calcitonin-gene related peptide (CGRP), IDE substrate in vitro]
Degradation: Medium
